The target in the assay is Sodium-dependent serotonin transporter (Rattus norvegicus, UniProt P31652).

Sequences of proteins named here, by UniProt entry; tags and fusion partners are left off.
UniProt P31652, whole entry: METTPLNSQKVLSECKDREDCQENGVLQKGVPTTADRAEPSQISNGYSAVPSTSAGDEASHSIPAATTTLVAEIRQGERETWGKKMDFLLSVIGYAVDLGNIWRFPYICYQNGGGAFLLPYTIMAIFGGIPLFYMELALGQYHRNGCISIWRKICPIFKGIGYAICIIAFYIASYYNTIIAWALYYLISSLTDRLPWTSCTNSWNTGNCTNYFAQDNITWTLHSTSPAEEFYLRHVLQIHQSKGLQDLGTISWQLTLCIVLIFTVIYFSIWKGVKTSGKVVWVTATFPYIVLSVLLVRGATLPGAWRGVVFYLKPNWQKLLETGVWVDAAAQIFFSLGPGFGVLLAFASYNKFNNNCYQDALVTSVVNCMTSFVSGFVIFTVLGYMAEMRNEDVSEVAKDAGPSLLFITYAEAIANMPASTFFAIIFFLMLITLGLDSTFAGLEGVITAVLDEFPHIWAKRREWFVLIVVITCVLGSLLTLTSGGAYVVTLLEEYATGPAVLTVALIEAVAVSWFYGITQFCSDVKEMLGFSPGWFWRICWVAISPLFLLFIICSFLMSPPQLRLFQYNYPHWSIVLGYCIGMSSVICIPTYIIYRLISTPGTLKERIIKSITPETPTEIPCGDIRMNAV

Structures are written as SMILES. pKi: −log10 of the molar value.

In general, pKi refers to −log10 of the Ki, conventionally taken in molar units. The low end stands for a high Ki, the high end for a low Ki.

For `COC(=O)[C@H]1[C@@H](c2ccccc2)C[C@@H]2CC[C@H]1N2C` [methyl (1R,2S,3S,5S)-8-methyl-3-phenyl-8-azabicyclo[3.2.1]octane-2-carboxylate], the pKi was 5.71.

The values are drawn from BindingDB's records for PubMed 10336510 (Virginia Commonwealth University, 1999).
